Results published in ChEMBL document CHEMBL5230114, “Current development of CFTR potentiators in the last decade” (Eur J Med Chem, 2020).

Amino acid sequences for entries named in this document (tags omitted). Chains listed by the source or under a name are the forms on record and can include a tag or linker.
UniProt P13569, as listed by the source: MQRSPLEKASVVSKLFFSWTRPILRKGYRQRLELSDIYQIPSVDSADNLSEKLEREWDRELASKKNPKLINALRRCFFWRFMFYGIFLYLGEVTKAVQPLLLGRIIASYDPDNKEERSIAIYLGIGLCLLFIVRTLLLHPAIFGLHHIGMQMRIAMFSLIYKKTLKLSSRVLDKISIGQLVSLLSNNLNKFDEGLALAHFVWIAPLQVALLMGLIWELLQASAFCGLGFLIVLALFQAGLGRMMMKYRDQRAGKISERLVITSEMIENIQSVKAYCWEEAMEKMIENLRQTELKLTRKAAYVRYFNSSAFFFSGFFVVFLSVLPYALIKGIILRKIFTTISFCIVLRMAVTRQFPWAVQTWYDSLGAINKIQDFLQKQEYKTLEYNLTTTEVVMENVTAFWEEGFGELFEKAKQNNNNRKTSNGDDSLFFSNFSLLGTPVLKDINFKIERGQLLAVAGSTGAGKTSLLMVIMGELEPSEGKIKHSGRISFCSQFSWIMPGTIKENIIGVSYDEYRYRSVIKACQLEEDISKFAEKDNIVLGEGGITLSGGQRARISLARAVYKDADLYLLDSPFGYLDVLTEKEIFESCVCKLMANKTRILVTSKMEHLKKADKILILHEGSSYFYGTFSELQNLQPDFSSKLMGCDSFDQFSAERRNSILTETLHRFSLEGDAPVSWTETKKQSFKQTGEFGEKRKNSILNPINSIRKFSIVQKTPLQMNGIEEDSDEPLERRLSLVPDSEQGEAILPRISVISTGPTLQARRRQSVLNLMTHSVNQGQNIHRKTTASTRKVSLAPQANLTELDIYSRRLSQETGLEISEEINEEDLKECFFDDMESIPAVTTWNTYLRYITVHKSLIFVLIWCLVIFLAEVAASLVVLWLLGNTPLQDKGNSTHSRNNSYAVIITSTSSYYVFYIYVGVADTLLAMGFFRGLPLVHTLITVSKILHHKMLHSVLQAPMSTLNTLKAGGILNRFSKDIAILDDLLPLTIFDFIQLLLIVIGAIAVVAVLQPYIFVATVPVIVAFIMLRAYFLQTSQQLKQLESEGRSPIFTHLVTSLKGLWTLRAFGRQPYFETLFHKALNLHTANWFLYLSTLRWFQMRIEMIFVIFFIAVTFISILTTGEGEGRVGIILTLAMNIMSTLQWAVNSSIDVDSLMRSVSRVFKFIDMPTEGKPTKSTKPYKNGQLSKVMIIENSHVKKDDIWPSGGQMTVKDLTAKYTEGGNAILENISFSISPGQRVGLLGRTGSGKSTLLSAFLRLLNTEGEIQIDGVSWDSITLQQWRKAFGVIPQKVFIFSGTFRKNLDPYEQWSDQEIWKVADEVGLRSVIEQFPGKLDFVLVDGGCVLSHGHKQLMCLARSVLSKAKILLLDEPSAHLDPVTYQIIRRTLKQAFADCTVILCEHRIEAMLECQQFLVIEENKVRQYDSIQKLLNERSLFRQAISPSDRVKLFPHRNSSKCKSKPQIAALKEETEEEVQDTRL

Molecular target: Cystic fibrosis transmembrane conductance regulator (Homo sapiens, UniProt P13569, F508DEL)
Assay: Potentiation of CFTR F508del mutant activity (unknown origin)

Q: How did the EC50 turn out when `O=c1c(-c2ccc(O)cc2)coc2cc(O)cc(O)c12` [GENISTEIN] was run?
A: Its EC50 is 7 µM.
